Experiments:
[1] = target: DDR2 extracellular domain (ECD) (Homo sapiens, UniProt Q16832); assay: in vitro ELISA-type assay, binding of soluble DDR2 ECD to immobilized collagen triple helical peptide; details: for IC50: read-out: IC50, Inhibition of DDR2-collagen binding activity, values in nM
[2] = system: 4T1-GFP-luc expressing cells; assay: lung metastasis after tail vein injection of 4T1-GFP-luc cells
[3] = system: Cells that do not express DDR2; assay: growth inhibition and toxicity in cells that do not express DDR2; type: cell-based; details: several concentrations
DDR2 signaling = assay: Western blot analysis of DDR2 downstream signaling in HEK293 cells expressing DDR2; details: 1 μM, 6 hours, collagen I-coated plates; FIG. 3A, 3B
[4] = system: BT549 human metastatic breast cancer cells; assay: migration through 3D collagen I matrix; details: 1 μM, over three days; FIG. 2E
4T1-Snail-CBG tumors = assay: 4T1-Snail-CBG breast tumor bioluminescence imaging in mice; type: in vivo, BALB/cJ mice; details: 10 mg/kg via tail vein injection, at 4 hours; FIG. 4A
DDR2 = DDR2 (Homo sapiens, UniProt Q16832); assay: DDR2 phosphorylation in DDR2 expressing HEK293 cells on collagen I, Western blot; details: 8 h, increasing amounts, FIG. 2A

By UniProt entry, the sequences of proteins in these tests, tags left out. Residues count along the entry.
UniProt Q16832, 22-399 limits assumed: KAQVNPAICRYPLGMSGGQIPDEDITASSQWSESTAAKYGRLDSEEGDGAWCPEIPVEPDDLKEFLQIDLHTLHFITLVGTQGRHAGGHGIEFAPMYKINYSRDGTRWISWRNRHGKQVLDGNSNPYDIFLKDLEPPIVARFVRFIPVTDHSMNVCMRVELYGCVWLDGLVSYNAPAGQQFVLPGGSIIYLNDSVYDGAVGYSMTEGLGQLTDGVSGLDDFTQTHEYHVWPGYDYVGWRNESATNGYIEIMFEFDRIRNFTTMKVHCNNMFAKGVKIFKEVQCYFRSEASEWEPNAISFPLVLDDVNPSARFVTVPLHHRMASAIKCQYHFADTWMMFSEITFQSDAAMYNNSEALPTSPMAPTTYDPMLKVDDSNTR
UniProt Q16832, 22-855 limits assumed: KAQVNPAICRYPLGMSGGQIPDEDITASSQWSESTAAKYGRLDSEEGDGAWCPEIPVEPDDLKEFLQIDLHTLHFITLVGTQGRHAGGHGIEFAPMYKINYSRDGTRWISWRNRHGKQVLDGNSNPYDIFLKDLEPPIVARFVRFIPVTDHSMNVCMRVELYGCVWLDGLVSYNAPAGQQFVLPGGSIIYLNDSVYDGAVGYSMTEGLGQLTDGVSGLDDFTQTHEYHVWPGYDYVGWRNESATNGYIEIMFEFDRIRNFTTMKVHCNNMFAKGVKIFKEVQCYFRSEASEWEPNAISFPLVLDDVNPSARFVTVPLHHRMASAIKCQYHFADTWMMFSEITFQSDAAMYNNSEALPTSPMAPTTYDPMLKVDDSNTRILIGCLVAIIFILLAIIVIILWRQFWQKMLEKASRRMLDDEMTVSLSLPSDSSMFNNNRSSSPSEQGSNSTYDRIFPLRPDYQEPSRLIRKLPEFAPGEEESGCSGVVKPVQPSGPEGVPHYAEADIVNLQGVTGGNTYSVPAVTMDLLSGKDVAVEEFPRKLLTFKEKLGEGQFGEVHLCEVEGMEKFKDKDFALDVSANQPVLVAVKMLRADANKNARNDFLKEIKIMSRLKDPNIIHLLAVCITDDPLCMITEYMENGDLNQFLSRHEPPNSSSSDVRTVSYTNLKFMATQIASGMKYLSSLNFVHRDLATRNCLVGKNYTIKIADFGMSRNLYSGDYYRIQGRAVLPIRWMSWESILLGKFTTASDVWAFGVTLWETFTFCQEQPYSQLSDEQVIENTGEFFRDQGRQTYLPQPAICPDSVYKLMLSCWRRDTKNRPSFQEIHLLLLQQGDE

Row | SMILES | IC50 [1] [nM] | tumor area per lung area ([2]; FIG. 5A) | whole mouse bioluminescence ([2]; imaging at days 1 and 7, FIG. 5B, 5C) | cell growth inhibition or cell toxicity [3] | downstream signaling: levels of phospho-ERK1/2, phospho-SRC, and SNAIL1 (DDR2 signaling) | distance of cell migration through 3D collagen I matrix relative to control [4] | Snail-CBG bioluminescence signal (Snail stability) (4T1-Snail-CBG tumors) | DDR2-collagen binding activity (absorbance at 490 nm) ([1]; 250 nM, 500 nM, or 2 μM test compound vs DMSO, effect even at lowest dose 250 nM, FIG. 1A, 1B) | manner of inhibition of DDR2 binding to collagen ([1]; increasing substrate concentration) | activation (phosphorylation) of DDR2, pY-DDR2 relative to total DDR2 (DDR2)
1 | COC(=O)c1ccc(COc2ccc3nc4ccc(=O)cc-4oc3c2)cc1 | 347 |  |  |  |  |  |  |  |  | 
2 | CCNS(=O)(=O)c1ccc(COc2ccc3nc4ccc(=O)cc-4oc3c2)cc1 | 230 | reduced | reduced | no cell growth inhibition or cell toxicity was observed | reduced levels | impairs | decreased | decreased | non-competitive | inhibited activation

— patent US20170334865A1, “DDR2 INHIBITORS AND METHODS OF USING” (WASHINGTON UNIVERSITY, priority 2014, published 2017)
